Reference: patent publication US20160122305A1, “Topical Compositions and Methods of Use Thereof” (Avon Products, Inc., priority 2014, published 2016)

Target: T1, α1A adrenergic receptor (Homo sapiens, UniProt P35348)
T1 sequence (P35348 1-466): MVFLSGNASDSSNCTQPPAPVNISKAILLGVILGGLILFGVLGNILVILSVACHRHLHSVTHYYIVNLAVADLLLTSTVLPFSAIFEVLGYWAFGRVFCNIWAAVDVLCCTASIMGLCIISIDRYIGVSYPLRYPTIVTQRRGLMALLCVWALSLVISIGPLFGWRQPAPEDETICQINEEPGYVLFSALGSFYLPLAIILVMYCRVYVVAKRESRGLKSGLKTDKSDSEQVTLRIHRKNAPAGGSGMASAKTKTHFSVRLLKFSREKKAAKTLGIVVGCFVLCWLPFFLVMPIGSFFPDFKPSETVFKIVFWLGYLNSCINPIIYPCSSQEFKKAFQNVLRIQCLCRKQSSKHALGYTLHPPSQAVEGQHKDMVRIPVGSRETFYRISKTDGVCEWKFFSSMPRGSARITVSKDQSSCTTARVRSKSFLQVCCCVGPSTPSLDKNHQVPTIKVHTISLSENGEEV
Assay: SelectScreen cell-based GPCR profiling, α1A agonist assay
Settings: classification in words from Table 1 EC50 values; insignificant β2 activity = EC50 greater than about 500 nM
Protocol: 32 μL of cell suspension (10,000 cells) were added to each well of a 384-well TC-Treated assay plate. Cells in Assay Media were incubated for 16-24 hours in the plate at 37° C./5% CO2 in a humidified incubator. […] 4 μL of Assay Media was added to all wells to bring the final assay volume to 40 μL. The plate was incubated for 5 hours at 37° C./5% CO2 in a humidified incubator. 8 μL of 1 μM Substrate+Loading Solution was added to each well and the plate was incubated for 2 hours at room temperature. The plate was read on a fluorescence plate reader.

Q: How did the “selectivity of agonism (α1A and/or α2A EC50 less than 1,000 nM and insignificant activity at β2)” value turn out when `CC(Oc1ccccc1C1CCCC1)C1=NCCN1` (stereo not shown) [Compound III] was run?
A: selective α1A and α2A receptor agonist
